Test results: publication PMC6746264, “Novel tyrosinase inhibitory peptide with free radical scavenging ability” (Journal of Enzyme Inhibition and Medicinal Chemistry, 2019)

Amino acid sequences for entries named in this document (tags omitted). Residues count along the entry.
UniProt C7FF04, 1-392: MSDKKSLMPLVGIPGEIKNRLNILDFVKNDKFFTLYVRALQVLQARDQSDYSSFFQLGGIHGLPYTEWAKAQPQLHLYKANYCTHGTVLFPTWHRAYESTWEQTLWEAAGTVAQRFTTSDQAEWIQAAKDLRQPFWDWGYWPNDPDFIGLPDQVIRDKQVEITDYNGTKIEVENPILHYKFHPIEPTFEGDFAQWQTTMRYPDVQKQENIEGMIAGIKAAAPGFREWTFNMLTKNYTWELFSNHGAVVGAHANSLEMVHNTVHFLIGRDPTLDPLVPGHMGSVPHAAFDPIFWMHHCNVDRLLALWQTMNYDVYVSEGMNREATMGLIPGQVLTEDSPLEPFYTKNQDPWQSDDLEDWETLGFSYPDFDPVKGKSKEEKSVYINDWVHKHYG

Target: mushroom tyrosinase (Agaricus bisporus, UniProt C7FF04)
Assay: Comparison of tyrosinase inhibition rate (maximum reaction rate, IC50)
Assay type: biochemical
Details: in vitro, mushroom tyrosinase 100 U per well, tyrosine 2.5 mM, inhibitor preincubated 10 min, 37 °C, absorbance 475 nm over 2 h, maximum reaction rate (Vss)
Procedure: Figure 2. […] (D) The plot of the percentage of enzyme activity (Vss) vs the […] concentration [I]. IC50 of the inhibitors were directly obtained from the plots.
Before conducting the experiment, all the solutions, 96-well plates, and tips were heated at 37 °C. Equal volumes of tyrosine solutions (final concentration of 2.5 mM) were added to the 96-well plates, mixed with different concentrations of the inhibitors mentioned above and incubated for 10 min at 37 °C. Then, equal volume of the tyrosinase solution (100 U per well) was added to the 96-well plate using a multichannel pipette, which was placed immediately in a microplate reader under shaking conditions for 30 s. Finally, the light absorbance value at 475 nm was recorded at 37 °C continuously for 2 h with intervals of 20 s. The maximum reaction rate of tyrosinase at each concentration of the inhibitor was calculated.

## glutathione
  pIC50: 2.93

pIC50: −log10 of the molar value.
